According to patent publication US20200262914A1 (MIT, published 2020):

Assays:
[1] = molecular target: human Mcl-1 (residues 172-327) (human) (UniProt Q07820); assay: yeast surface display FACS
[2] = molecular target: human Bfl-1 (residues 1-151) (human) (UniProt Q16548); assay: yeast surface display FACS against Bfl-1, Mcl-1, Bcl-xL, Bcl-w, Bcl-2

Substance: dM10 (peptide; other documents disagree on this pair)
- fold tighter binding than FS2 [1]: 100 fold

Substance: dF1 (peptide; other documents disagree on this pair)
- fold selectivity for Bfl-1 over the other family members tested [2]: > 100 fold

Substance: dM9 (peptide; other documents disagree on this pair)
- fold tighter binding than FS2 [1]: 100 fold

Substance: dF2 (peptide; other documents disagree on this pair)
- fold selectivity for Bfl-1 over the other family members tested [2]: > 100 fold

Substance: dF5 (peptide; other documents disagree on this pair)
- fold selectivity for Bfl-1 over the other family members tested [2]: > 100 fold
